Experimental data taken from ChEMBL document CHEMBL1133167, “Synthesis and opioid receptor affinity of morphinan and benzomorphan derivatives: mixed kappa agonists and mu agonists/antagonists as potential pharmacotherapeutics for cocaine dependence” (J Med Chem, 2000).

Sequences of proteins named here, by UniProt entry; tags and fusion partners are left off.
UniProt P97266, whole entry: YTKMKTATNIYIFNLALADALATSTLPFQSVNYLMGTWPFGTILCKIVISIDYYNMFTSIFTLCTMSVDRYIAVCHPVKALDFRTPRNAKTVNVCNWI

Target: Mu-type opioid receptor (Cavia porcellus, UniProt P97266)
Assay: Binding affinity towards Opioid receptor mu 1 by displacing the radioligand [3H]DAMGO from guinea pig brain membrane
Summary of the method: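 Guinea pig brain membranes (homogenised, preincubated 37 °C 30 min, washed), 500 µg protein, with 12 concentrations of compound in 50 mM Tris-HCl pH 7.5 at 25 °C for 60 min. Nonspecific binding defined with 1 µM naloxone. Glass-fibre filtration, with PEI-soaked filters for kappa. IC50 by log-probit fit; three experiments in triplicate, mean ± SEM.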

Oc1ccc2c(c1)[C@@]13CCCC[C@H]1[C@@H](C2)N(CC1CC1)CC3 [CYCLORPHAN]
Ki: 0.092 nM
